Assay results: patent publication US20230085439A1

Columns and labels:
[1] = target: hMPV A2 F (human metapneumovirus)
[2] = target: hMPV B1 F (human metapneumovirus)

B1: MPV465 (antibody, V domains shown)
VH: EVQLVESGGGVVQPGTSLRLTCVASGFTFGTYGMYWLRQSPGKGLEWVAFIWLDGSKTYYADSVKGRFTVSRDNSKNKLYLEMNSLSAEDTAMYYCARAPGSVWYDTRGHMKGWFDPWGQGTLVTVAS
VL: QSVLTQTPSVSGTPGQRVTISCSGSSSNIENNYLYWYQQLPGTAPKLLIYGDNRRPSGVPDRFSGSKSGTSASLAISGLRSEDEADYYCATWDDNLSGPVFGGGTKVTVL
EC50 [1]: 0.47 µg/mL | EC50 [2]: 0.12 µg/mL
